Values of other authors in US8871753B2, “Macrocyclic compounds and their use as kinase inhibitors” (Incyte Corporation, priority 2008, dated 2014).

Conditions: patients; cited from earlier work

Erbitux: "new targeted anti-cancer agents such as Iressa, Erbitux, and Tarceva has induced acneiform rash"
acneiform rash: induced acneiform rash with some patients
